Measured values as given in patent publication US8895282B2, “Use of a substance for manufacturing of a medicament for treatment of common cold” (Tanomed AB, priority 2008, dated 2014).

Columns and labels:
WI 38 cells [1] = experiment: Toxic effect on WI 38 cells, control wells (Experiment 2)
Procedure: Virus concentration=dil 2. Incubation during 30 min in heater keeping 37° C. After 30 min the effect of the hydrogen peroxide is aborted with the addition of 0.1 ml catalase solution into the vial (=1 kU/ml). • 0.7 ml 5% glucose solution+0.1 ml dil 1 of RV7 (=a7) or RV8 (=a8)+0.1 ml of the hydrogen peroxide solution (=final concentration in the vial=[…]). Incubation and abortion of the hydrogen peroxide effect similar as in a).
After the addition of catalase, samples are transferred to a 96-well plate with flat bottom according to table 3.

WI 38 cells [2] = experiment: Toxic effect on WI 38 cells, control wells (Experiment 1)
Procedure: Cell culture: Human lung cell fibroblasts (WI 38, ATCC-CCL-75) was used for cytopathic effect detection. 10-fold serial dilutions had been made from the concentrated viral suspension. […] Then the media was changed to RPMI with 2% of fetal calf serum, which was preserved during the assay. The cells were incubated in CO2enriched air at 37° C. During the experiments a cell culture of 17th-18^thpassage was used.
In table 1 the content of each of the 10 vials (Eppendorf) is listed. The vials were incubated in a heater keeping a stable temperature of 37° C. 1000 U of catalase was added after 15, 30 and 60 min of incubation. 2×50 μl from each vial was transferred to duplicate cell wells (a 96-well plate).

[3] = tested on: human lung fibroblast cells (WI 38); experiment: Leniency to human lung fibroblast cells (WI 38), laboratory studies; type: cell-based

Glucose oxidase [GO]
Effect on WI 38 cells after 2 days (WI 38 cells [1]; wells 50 U GO/ml): tox
Effect on WI 38 cells after 10 days (WI 38 cells [1]; wells 50 U GO/ml): tox
Effect on WI 38 cells after 2 days (WI 38 cells [1]; wells 50 UGO, PBS): tox
Effect on WI 38 cells after 10 days (WI 38 cells [1]; wells 50 UGO, PBS): tox
Day 3 (toxic effect on WI 38 cells, control) (WI 38 cells [2]; GO 40 U/ml, no virus): (tox)
Day 5 (toxic effect on WI 38 cells, control) (WI 38 cells [2]; GO 40 U/ml, no virus): (tox)
Day 7 (toxic effect on WI 38 cells, control) (WI 38 cells [2]; GO 40 U/ml, no virus): (tox)
Toxic effect on WI 38 cells (WI 38 cells [2]; Glucose Oxidase): slight toxic effect

galactose oxidase
Leniency to human lung fibroblast cells (WI 38) [3]: very lenient
